Source: patent publication US20070123718A1, “Novel 4-amino-2(5H)-furanones” (Aston University, priority 2003, published 2007)

By UniProt entry, the sequences of proteins in these tests, tags left out. Residues count along the entry.
UniProt H0VZC5, 1-426: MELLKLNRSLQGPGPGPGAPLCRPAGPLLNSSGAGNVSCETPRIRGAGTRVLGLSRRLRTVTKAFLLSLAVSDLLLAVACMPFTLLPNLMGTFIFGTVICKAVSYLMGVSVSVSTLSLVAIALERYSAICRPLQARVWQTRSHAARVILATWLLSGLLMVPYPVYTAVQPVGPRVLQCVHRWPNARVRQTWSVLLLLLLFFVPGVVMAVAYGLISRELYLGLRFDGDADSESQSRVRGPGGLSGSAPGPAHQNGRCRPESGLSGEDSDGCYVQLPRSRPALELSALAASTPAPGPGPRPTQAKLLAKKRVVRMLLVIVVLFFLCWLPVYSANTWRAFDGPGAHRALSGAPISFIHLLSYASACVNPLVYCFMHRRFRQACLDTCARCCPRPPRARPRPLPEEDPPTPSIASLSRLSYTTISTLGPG

Target: CCKB receptor (guinea pig cerebral cortex) (Cavia porcellus, UniProt H0VZC5)
Test: 125I-CCK-8 receptor binding assay, CCKB
Details: read-out: Activity CCK-B [μM] (IC50); Table 2; guinea pig cerebral cortex membranes
Experimental: CCKA and CCKB receptor binding assays were performed, by using guinea pig cerebral cortex (CCKB) or rat pancreas (CCKA). Male guinea pig brain tissues were prepared according to the modified method described by Saita et al, [(1994), Characterization of YM022: its CCKB/gastrin receptor binding profile and antagonism to CCK-8-induced Ca2+mobilization., Eur. J. Pharmacol.,269, 249-254]. Pancreatic membranes were prepared in a similar way but by Charpentier et al, [(1988), Cyclic cholecystokinin analogues with high selectivity for central receptors., Proc Natl Acad Sci USA, 85, 1968-1972]. The […] CCK binding assay: Tissues were homogenized in ice cold sucrose (0.32 M, 25 ml) for 15 strokes at 500 rpm and centrifuged at 13000 rpm for 10 mins. The supernatant was re-centrifuged at 13000 rpm for 20 mins. The resulting pellet was re-dispersed to the required volume of buffer at 500 rpm and stored in aliquots at […].
Binding was achieved using a radioligand ^125I-Bolton-Hunter labeled CCK, NEN at 25 pM. The samples were incubated {with membranes (0.1 mg/ml) } in 20 mM Hepes, 1 mM EGTA, 5 mM MgCl2, 150 mm NaCl, 0.25 mg/ml bacitracin at pH 6.5 for 2 hrs at RT and then […] by centrifugation at 1100 rpm for 5 minutes. The membrane pellets were washed twice with water and the bound radioactivity was measured in a Packard Cobra Auto-gamma counter (B5005). […]

CC(=O)OC1OC(=O)C(Cl)=C1N1CCN(Cc2ccccc2)CC1 (stereo not shown) was tested, and the IC50 was > 20 µM.
